p53 reactivator – re-activators of mutant p53. AID 504706. H1299 p53-A138V BP100-luciferase reporter, luminescence, 24 h. 0.063% of 320,000 active. Potency, µM (series often up to 92.2 µM), without a hit: at the top dose activity change, positive = activation, usual class: activators; note: potency is the fitted concentration of half-maximal effect; % of control where 0% means no effect; nearly all actives have a fitted effect of over 45% in size
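H1299 (p53-null), stable ts p53-A138V + BP100-Luc; 1000 cells/well, Opti-MEM/10% FBS; cpd 4 pt, 1:5; 24 h, 37 deg C, 5% CO2; detection reagent 10 min RT; luminescence.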
BRCA1 expr up – activators of BRCA1 expression; AID 624202; 1.1% of 380,000 active; Potency, µM (highest dose often 46.1 µM), for the others: at the highest dose activation, most hits filed as activators; MCF7-BRCA1-FFLuc reporter, luminescence, 48 h; response scale: scaled: vehicle 0%, 10 µM genistein 100%; note: potency is the fitted concentration of half-maximal effect; nearly all actives have a fitted effect of over 80% in size
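Luminescence from a BRCA1-driven firefly luciferase in MCF7 cells was read after 48 h compound exposure at 37 C. Data normalized against DMSO and a 10microM genistein activation control, then curve-fitted across the titration.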
miR-21 reporter – raises the signal of a miR-21 reporter. HeLa miR-21 FLuc reporter, luciferase, 48 h. 340,000 tested, under 10 active. Potency, µM (highest dose often 38.3 µM), for the others: at the highest dose reporter change, positive = more light; active = well fitted rising curve with a large enough effect; inconclusive = small, poorly fitted or top-dose-only effect; inactive = no such curve, though single readings can be large or run the other way;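 note: % of control where 0% means no effect; miR-21 action dims this reporter so a rising signal means less miR-21 action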
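HeLa cells stably expressing CMV-driven firefly luciferase with a downstream miR-21 binding sequence, endogenously expressing miR-21, were treated with titrations (up to about 40uM final) for 48 hours at 37 degree Celsius. Luciferase luminescence was read after lysis.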
Anesthetic bind – candidate novel general anesthetic via apoferritin binding. 0.074% of 350,000 active. Potency, µM (titrated, usually from 77.5 µM), without a hit: top-dose activity change, negative = displacement, usual class: inhibitors. apoferritin/1-aminoanthracene competitive binding, fluorescence. P02791; note: potency is the fitted concentration of half-maximal effect; % is set by controls: 0 for no effect and ±100 for the full control effect; nearly all actives have a fitted effect of over 20% in size
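Concentration-response curves derived by four-parameter Hill fitting of normalized fluorescence, where compounds displaced 1-AMA from 10 uM horse apoferritin following a brief 10 min room-temperature incubation; propofol titration acted as positive control.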
* marks the source's active call; other numbers are inactive results; ? = inconclusive; / = no result. Rows were chosen to be rich in hits. Some 1.1% of all compounds tested hit in one or more screens of this group. Unless noted, calls come from the whole dose curve; as a rule, active = well fitted curve in the direction sought with a large enough effect; inconclusive = small, poorly fitted or top-dose-only effect, or another doubt; inactive = no such curve, though single readings can be large; an effect the other way counts as inactive or inconclusive.

| entry | SMILES | p53 reactivator | BRCA1 expr up | miR-21 reporter | Anesthetic bind |
| --- | --- | --- | --- | --- | --- |
| 1 | CCOc1cccc(C(=O)Nc2nc3c(s2)CC(C(C)(C)C)CC3)c1 (stereo unspecified) | / | 0.0% | -2.8% | 49.4% |
| 2 | CC(C)(C)NC(=O)NC(=O)COc1ccc(Br)cc1Br | ? | 33.2% | -72.7% | -14.4% |
| 3 | O=C(COc1ccc(Br)cc1Br)NC(=O)NC1CCCC1 | 5.1% | 11.2µM* | -69.4% | -1.3% |
| 4 | COc1ccc(/[N+]([O-])=C/c2ccco2)cc1 | ? | 8.91µM* | / | / |
| 5 | N#Cc1ccccc1S(=O)(=O)N1CCN(C(=O)C2CCCCC2)CC1 | -3.4% | 5.2% | / | / |
| 6 | Cc1ccc(S(=O)(=O)c2nc(-c3ccccc3)oc2SCC(=O)NC2CCCCC2)cc1 | / | / | 2.9% | -7.9% |
| 7 | Cc1cc(C(=O)COc2ncnc3sccc23)c(C)n1C1CC1 | ? | 8.91µM* | -39.8% | -11.9% |
| 8 | CCCn1c(C)cc(C(=O)COc2ncnc3sccc23)c1C | ? | 74.9% | -35.4% | -19.6% |
| 9 | CC(C)c1ccc(NC(=O)Nc2nc(C(N)COCc3ccccc3)cs2)cc1 (stereo unspecified) | / | -17.1% | / | / |
| 10 | CCOCCCNc1ccc(-c2ccccc2)nn1 | ? | 2.82µM* | -39.7% | -3.9% |
| 11 | CCOCCCNc1nc2ccccc2[nH]1 | ? | 30.7% | -15.1% | -1.8% |
| 12 | COc1ccccc1CCNS(=O)(=O)CCNC(=O)c1ccccc1 | -1.4% | -29.6% | / | / |

Next section
| entry | SMILES | p53 reactivator | BRCA1 expr up | miR-21 reporter | Anesthetic bind |
| --- | --- | --- | --- | --- | --- |
| 13 | COc1ccccc1CCNC(=O)c1ccc(Br)s1 | 7.5% | 8.91µM* | -42.0% | -16.6% |
| 14 | CC(C)Nc1oc(-c2cccc3ccccc23)nc1C#N | 9.5% | 14.1µM* | -66.2% | 304.8% |
| 15 | NC(=O)c1ccc(NC(=O)C2CCCO2)cc1 (stereo unspecified) | -4.4% | 26.6% | -3.7% | -8.2% |
| 16 | O=C(Nc1ccc(O)cc1)c1ccc(NC(=O)C2CCCO2)cc1 (stereo unspecified) | 11.2% | 14.9% | -14.8% | -11.5% |
| 17 | Cc1cc(NC(=O)c2ccc(NC(=O)C3CCCO3)cc2)ccc1Br (stereo unspecified) | ? | 1.12µM* | 1.1% | -7.8% |
| 18 | CCCOC(=O)c1ccc(NC(=O)C2CCCO2)cc1 (stereo unspecified) | ? | 11.2µM* | -55.3% | -4.1% |
| 19 | C/C(=N/NC(=O)c1ccoc1C)c1ccc(NC(=O)C2CCCC2)cc1 | ? | 5.62µM* | -68.1% | -12.1% |
| 20 | C/C(=N\NC(=O)c1ccoc1C)c1ccccc1 | 9.4% | 3.98µM* | -72.1% | -2.4% |
| 21 | Cc1occc1C(=O)N/N=C/C=C/c1ccccc1 | 20.0% | 10µM* | -59.5% | -20.4% |
| 22 | C/C(=N\NC(=O)c1ccn(C)n1)c1ccc(NC(=O)C2CCCC2)cc1 | 6.2% | 1.6% | -31.2% | -9.4% |
| 23 | C/C(=N\NC(=O)c1nn(C)c(C)c1Br)c1ccc(NC(=O)C2CCCC2)cc1 | 22.6% | 5.01µM* | -54.6% | -4.9% |
| 24 | O=c1ccc2cc(S(=O)(=O)Nc3ccc(OC(F)(F)F)cc3)ccc2[nH]1 | / | / | -15.7% | 9.6% |

(next part)
Values in the order – p53 reactivator, BRCA1 expr up, miR-21 reporter, Anesthetic bind
25: CC1CCN(C(=O)c2cc3ccccc3o2)CC1
    ?, 11.2µM*, -53.0%, -17.2%
26: O=C(c1cc2ccccc2o1)N1CCCCCC1
    ?, 8.91µM*, -40.8%, -6.0%
27: COCCn1c(SCC(=O)Nc2ccc(Br)cc2)nc2c([nH]c3ccccc32)c1=O
    /, 13.8%, 7.5%, -1.9%
28: C(/Oc1ccccc1)=C1\Nn2c(nnc2-c2cc(-c3ccccc3)n[nH]2)S1
    /, -11.2%, /, /
29: CCOC(=O)C1(C)CCCN(C(=O)c2cc(C)on2)C1 (stereo unspecified)
    /, 13.5%, /, /
30: CC(C)NC(=O)Cn1ccc2cc(S(=O)(=O)N3CCCCCC3)ccc21
    /, /, 8.1%, -3.2%
31: COC(=O)c1ccc(COC(=O)c2ccccc2OC)cc1
    22.4µM*, -4.9%, -32.3%, -0.9%
32: COC(=O)c1ccc(COC(=O)CCC(=O)c2cccs2)cc1
    ?, 10µM*, -42.2%, ?
33: CCOc1ncccc1C(=O)OCc1ccc(C(=O)OC)cc1
    ?, ?, -14.5%, -9.7%
34: COC(=O)c1ccc(COC(=O)c2ccc(N(C)C)cc2)cc1
    10.9%, 5.01µM*, -10.5%, 53.1%
35: CN(C)c1ccc(C(=O)OCc2ccccc2)cc1
    ?, ?, -44.5%, -18.1%
36: CCN(CC)C(=O)c1csc([C@@H]2O[C@H](CO)[C@H](O)[C@H](O)[C@H]2O)n1
    /, 8.4%, /, /
37: CCc1ccc(NC(=O)Nc2ccon2)cc1
    ?, 3.16µM*, -50.7%, -10.2%
38: Cc1cccc(NC(=O)Nc2ccc3c(c2)CCC3)c1
    ?, 4.47µM*, -53.5%, -6.8%

Complete entries from above:
CCOC(=O)C1(C)CCCN(C(=O)c2cc(C)on2)C1 (stereo unspecified) in the list: p53 reactivator: /; BRCA1 expr up: 13.5%; miR-21 reporter: /; Anesthetic bind: /
COC(=O)c1ccc(COC(=O)CCC(=O)c2cccs2)cc1 in the list: p53 reactivator: ?; BRCA1 expr up: 10µM*; miR-21 reporter: -42.2%; Anesthetic bind: ?
CC1CCN(C(=O)c2cc3ccccc3o2)CC1 in the list: p53 reactivator: ?; BRCA1 expr up: 11.2µM*; miR-21 reporter: -53.0%; Anesthetic bind: -17.2%

Screening data: PubChem, National Center for Advancing Translational Sciences (NCATS)
